Assay [1] has as its system histamine. The assay can be described thus: Bronchospasm by inhalation of a histamine solution. The class given is in vivo, guinea-pigs. As to conditions: Cavia porcellus, po, 0.5 h, read-out: Bronchospasm ED50. Here is the method: F-Bronchospasm by inhalation of a histamine solution
Guinea-pigs are placed in a closed chamber into which histamine is introduced as an aerosol, and only those which show very distinct signs of asphyxia within four minutes are selected.
The substance to be studied is administered to groups of guinea-pigs thirty minutes before a further period in the chamber in order to check the resistance to histamine. A guinea-pig is considered to be protected if it resists the histamine aerosol for ten minutes without showing signs of asphyxia.
A 50% effective dose is calculated from the results obtained.

Assay [2] concerns histamine. The experiment in a line: animal or person. The class given is in vivo, guinea-pigs. As to conditions: Cavia porcellus, po, 0.5 h, read-out: Histaminic shock ED50.

Molecules are shown by their SMILES.

For orientation: ED50 means the dose at which the effect has come halfway, by size or by number of responders.

In the case of `CC(C)(C)c1ccc(C(O)CCCN2CCC(C(O)(c3ccccc3)c3ccccc3)CC2)cc1` (centres unmarked) [Terfenadine, reference compound], the ED50 with histamine [1] is 1.6 mg/kg; in the assay on histamine [2], 2.58 mg/kg.
